ChEMBL document CHEMBL5500417, “Discovery of Novel 2-Oxoacetamide Derivatives as B3GAT3 Inhibitors for the Treatment of Hepatocellular Carcinoma” (J Med Chem, 2024)

Key:
[1] = test system: HCCLM3; assay: cells; details: Homo sapiens, HCCLM3, 72 h
[2] = test system: MHCC97H; assay: cells; details: Homo sapiens, 72 h
[3] = target: T1, Galactosylgalactosylxylosylprotein 3-beta-glucuronosyltransferase 3 (Homo sapiens) (UniProt O94766); details: HCCLM3, time 3.0 hrs
T1 sequence (whole entry): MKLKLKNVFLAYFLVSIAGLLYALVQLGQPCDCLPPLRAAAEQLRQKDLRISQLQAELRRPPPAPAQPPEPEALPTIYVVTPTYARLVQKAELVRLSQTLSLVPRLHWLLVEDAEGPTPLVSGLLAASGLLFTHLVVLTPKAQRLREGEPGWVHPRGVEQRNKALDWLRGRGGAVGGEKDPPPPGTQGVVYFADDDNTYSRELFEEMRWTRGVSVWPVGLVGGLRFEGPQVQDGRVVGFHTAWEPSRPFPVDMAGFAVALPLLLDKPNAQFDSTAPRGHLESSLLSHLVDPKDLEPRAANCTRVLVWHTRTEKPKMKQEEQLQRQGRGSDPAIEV

[4] = target: T1, Galactosylgalactosylxylosylprotein 3-beta-glucuronosyltransferase 3 (Homo sapiens); details: MHCC97H, time 3.0 hrs

| IC50 [1] [µM] | IC50 [2] [µM] | Tm [3] [°C] | Tm [4] [°C] | Structure (SMILES) |
| --- | --- | --- | --- | --- |
| 43.1 | 6.19 | – | – | O=C(Nc1nc2c(ccc3ccccc32)s1)C(=O)Nc1nc2c(ccc3ccccc32)s1 |
| – | – | > 61 | 52 | COC(=O)c1ccc2[nH]cc(C(=O)C(=O)NC3CCN(c4ccc(C)cc4Cl)C3=O)c2c1 (centres undefined) |
